Apparent affinities of Ab-14 variants for a coronavirus HR2 peptide

Source: Li et al. 2023 (doi:10.1038/s41467-023-39022-2), MIT Lincoln Laboratory and A-Alpha Bio; data file from the FLAb repository.

Antigen: PDVDLGDISGINAS, a 14-residue peptide of the SARS-CoV-2 spike HR2 region.

Parent: Ab-14, a human scFv built as VH, the linker GGGGSGGGGSGGGGS, VL. Only the CDRs of the light chain vary.
VH: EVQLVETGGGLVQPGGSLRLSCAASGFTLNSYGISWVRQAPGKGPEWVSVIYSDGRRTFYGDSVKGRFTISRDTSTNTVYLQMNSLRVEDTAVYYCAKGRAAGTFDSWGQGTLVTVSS
VL: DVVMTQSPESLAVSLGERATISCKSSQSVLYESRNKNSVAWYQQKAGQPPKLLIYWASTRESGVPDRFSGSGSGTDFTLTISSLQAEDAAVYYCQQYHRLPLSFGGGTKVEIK

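Phage display of a naive human antibody library on the peptide gave the parent. The variants were designed computationally from a first round of random CDR variants and then made and measured. Several design methods are mixed in this list. The assay is AlphaSeq: two haploid yeast populations carry antibody and antigen on their surface. The frequency of each diploid, read from paired DNA barcodes, reflects how well the two displayed proteins bind. The ratio of observed to expected reads was calibrated, replicate by replicate, on BCL2-family standards whose Kd was known from biolayer interferometry. The assay was run in six technical replicates.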

The parent's light chain CDRs are KSSQSVLYESRNKNSVA, WASTRES, QQYHRLPLS; each variant's own CDRs replace them letter for letter.
Variants here have more than six changes.
Scale: log10 of Kd in nM, estimated from mating counts; low values are strong binders.
A mean of the replicates is given; it leaves out those without a signal.
An entry "nd" has no value in the source: the pair was not observed among the diploids in any replicate. This suggests poor binding but is not conclusive.
Values of this round are not directly comparable with the first-round values of the same sequences.

CDR-L1	CDR-L2	CDR-L3	log10 Kd (nM), mean	detected
KIGMTLNQMMHKKNAVA	DLVTREN	QQYHRLPLS	0.57	6/6
KINGVLINFGEDWNAIA	EENLSNL	QQYFHLPLS	nd	0/6
KFEMSVPYEQRNKNSVA	HASVRES	QQYHRLPLS	-0.16	6/6
HITMGMYVHGRHHSSIA	QAETRMK	QQYDRLPLI	1.54	6/6
QLSGITGHMSMIKNNVA	EMETREN	QQYERLPLS	0.70	6/6
KLSQGWLYESRNKNNVA	NASWREQ	QQYHRLPLS	-0.16	6/6
LISSVWDYGSRNYNSVA	QTSTREQ	QQYDRLPLE	1.00	5/6
IVSQLMLWGMHAKNSIA	EAETRIN	QQYHHLPLI	0.78	6/6
KISASVNYEMVNGQSVA	QMSTREV	QQYDRLPLS	0.46	6/6
TLYGLSVSMSKNVNNVA	EMTTREK	QQYDRLPLV	1.36	6/6
KCAQGWGYESRNANNVA	NASQRES	QQYHRLPLS	-0.45	6/6
KVMQSMLYESRNQNSVA	HASTREQ	QQYHRLPLQ	0.10	6/6
MISDLMLYGARNKNPIA	NASTREY	QQYHRLPLS	0.82	6/6
MISQMFEGLSTSKNPVA	QVSTRCE	QQYHRLPLS	2.12	6/6
KAQFSCLYESRNQNSVA	SASQRLS	QQYHRLPLS	0.12	6/6
MIYGAQRELGAMANSIA	DNVTRYD	QQYERLPLS	2.28	1/6
KLSIFQQVESINKSNVA	EMVTRES	QQYDRLPLS	2.50	1/6
KQSYGQDYSSRNDNSVA	DASTRES	QQYHRLPLS	0.34	6/6
KLTATMRFEQSKSNNIA	EVTTRSK	QQYYRLPLA	0.67	6/6
KAQDGELYESRDKNSVA	DASKRLS	QQYHRLPLS	-0.15	6/6
RLSALSGIQEVERNSVA	QNSTREE	QQYDHLPLS	2.63	4/6
HLSMLAGVESVKHNSVA	ENSTREQ	QQYDRLPLM	2.69	6/6
LWSQSDLLESRNHNSVA	DASTRCS	QQYHRLPLS	0.44	6/6
KFEQLDMYEQRNKNSVA	NASQRED	QQYHRLPLS	-0.30	6/6
MISQVMGLNNSYKSSVA	QAETRLN	QQYDHLPLS	1.75	6/6
KVQSEALGGNQYTSNIA	GQSVAMP	QQYERLPLD	0.19	6/6
KFAYGLDMNNAHCSAVA	HADIREI	QQYFKLPLM	1.42	6/6
KLNKHAWDFNQTWNSVA	DHSMRVT	QDYIRLPLT	2.40	5/6
TISYSANMTGLNRNSVA	QAEERLE	QQYHRLPLS	0.72	6/6
IVSQLMIWGMHVKNSIA	EAEIRLN	QQYDRLPLI	nd	0/6
KLMPSEWYESRMCNSVA	NASVRES	QQYHRLPLS	0.04	6/6
KLSEVAHFESRKKNSVA	ENSTREE	QQYDHLPLS	1.82	6/6
KSSGSQLYEDGNKNSVA	SATQRES	QQYHRLPLS	0.15	6/6
KISQSVGYQDRNKNSVA	NAQQRMQ	QQYHRLPLS	0.14	6/6
NFGQKMALYTGDRYSIA	DATVEAD	QQYSRLPIT	0.83	6/6
MLSQMWAIGMKVSNSVA	QVSTRFE	QQYDRLPLI	1.21	6/6
KVSEFMRGLLSKQDSIA	DNVTRNN	QQYDRLPLS	3.39	2/6
QLYQSMNFLGRVMNSIA	DASTIWD	QQYHRLPLS	0.89	3/6
KLSISMLHESINKHNVA	EVRTRES	QQYDRLPLS	1.12	6/6
NLGGEDAQDTRGMAAVA	DVSEVGE	QHYNRLPLS	1.77	5/6
KVQQMWLYGSRNCNSVA	NASQREE	QQYHRLPLS	0.36	6/6
HQSPSVLYESRNKNSVA	NGSTREV	QQYHRLRLS	nd	0/6
TLMQVGGYEMNAHNSIA	DLRTREN	QQYHRLPLA	0.70	5/6
KLLQVTENMQLNRNNVA	HMSTRED	QQYHRLPLS	0.44	6/6
MISQVMNTLTRQGNNVA	DLTEREK	QQYFRLPLS	0.90	6/6
KISFWSYRGSLWHNNIA	GGSQRAE	QQYSRLPLN	2.30	2/6
HISIKLPGNWYMMDSVA	HSELRAE	QQYARLPLG	1.29	4/6
KLSMITGHQLMSKDNVA	EMVTREN	QQYNRLPLS	0.77	6/6
KISQSEYYEDRNKMSVA	DASQRLS	QQYHRLPLS	0.00	6/6
QFARAMYHGGNDNQNIA	DAMTYIK	QQYSRLPLF	1.39	2/6
KISMLQRFQSNAKNNIA	EMSRREE	QQYHRLPLS	0.14	6/6
KITQIFSPKGNSDHSVA	NANTLAH	QQYYMLPLM	0.18	6/6
KISQMVRVGSTVSNSIA	EEVTRAK	QQYHRLPLA	1.36	6/6
MISQLMNMGTFAINSVA	QAEIRNN	QQYDRLPLA	1.94	2/6
HLHTIMYTENIGTNSIA	DANLHVD	QQYFRLPIS	0.30	6/6
HITYGMMVHGRHMESIA	QAEERAK	QQYDRLPLS	0.75	6/6
NLSIQREHQNMDAYAVA	QTEIREV	QQYAILPLA	1.86	4/6
KVDMYELPNGFNRSHVA	QAEVRAP	QQYWRLPLE	2.45	5/6
IIAEQNMHVGIGANAIA	NATVRSA	QQYLRLPLM	0.58	6/6
ILEENVDDITEIGNSIA	ETNMVRS	QQYHRLPLA	1.34	6/6
KLQSITGTEKVHGNNVA	EMETRER	QQYNRLPLA	0.02	6/6
KISQMYRYEQQNSSSIA	EANTREN	QSYHRLPLS	2.79	5/6
TLTQVTMVESYIKNSVA	QASTRLE	QDYHRLPLS	1.07	6/6
TISTSTYWESRNKNSVA	QTSTREE	QDYDRLPLS	0.46	6/6
KIGQQVTYESTMKNAIA	QMTTREE	QQYHRLPLS	1.22	6/6
NLSWKLIGFENEWMAVA	NTSERNA	QQYARLPLS	0.89	6/6
KLANRMYQGGLVQANVA	EAKELWE	QQYYHLPLA	0.77	6/6
KQSCSELYGSRNKNSVA	DASQREE	QQYHRLPLS	-0.41	6/6
NITQQGDNMGDQRANVA	NGETLFH	QQYAHLPLL	0.78	6/6
ILSQSVMMGMHLKNSVA	QATMRFN	QQYHRLPLM	1.36	2/6
KISQMTRVGITHGNSIA	EEVTRAK	QQYHRLPLA	2.06	6/6
HMSMLTMMGMRHRNSVA	QMTVREN	QQYDRLPLM	1.62	6/6
KIGMTLNTLMHQKNNVA	DLVEREN	QQYFRLPLS	0.77	6/6
ILSQMLLAAGNKHNSVA	QANYRES	QQYHRLPLS	2.92	2/6
KVSQSVLGLQRAQNSVA	EASKRES	QQYHRLPLS	0.65	6/6
QMRLLLENSGHRMNSIA	DETMKPD	QQYVRLPLQ	1.01	5/6
KLQQSDQYESRVKNSVA	QASVRES	QQYHRLPLS	0.04	6/6
ALSIQQQENTGIVNSIA	QTSLREH	QQYHHLPLC	0.58	6/6
MISINQSNYGGMRSAIA	DTNLARM	QQYYHLPLM	2.14	3/6
TISQTLMYGMRNRSNVA	EVSERLN	QQYDRLPLL	1.96	6/6

Top 9 of the variants detected in all replicates, tightest first:

CDR-L1	CDR-L2	CDR-L3	log10 Kd (nM), mean	detected
KCAQGWGYESRNANNVA	NASQRES	QQYHRLPLS	-0.45	6/6
KQSCSELYGSRNKNSVA	DASQREE	QQYHRLPLS	-0.41	6/6
KFEQLDMYEQRNKNSVA	NASQRED	QQYHRLPLS	-0.30	6/6
KFEMSVPYEQRNKNSVA	HASVRES	QQYHRLPLS	-0.16	6/6
KLSQGWLYESRNKNNVA	NASWREQ	QQYHRLPLS	-0.16	6/6
KAQDGELYESRDKNSVA	DASKRLS	QQYHRLPLS	-0.15	6/6
KISQSEYYEDRNKMSVA	DASQRLS	QQYHRLPLS	0.00	6/6
KLQSITGTEKVHGNNVA	EMETRER	QQYNRLPLA	0.02	6/6
KLQQSDQYESRVKNSVA	QASVRES	QQYHRLPLS	0.04	6/6

Three control strains display no target. For all light chain designs, 4% of the pairings with them gave a signal, with a median of 2.64 and one signal in twenty below 1.59, so weak values seen in few replicates may be background.
The parent sequence was in this pool as ten entries: three were never detected, three once, and four in most replicates, with averages from 0.34 to 2.37.
The authors averaged sequences with at least three values out of six and counted those with two or fewer as poor binders.